Key:
[1] = target: T1, Serotonin 2 (5-HT2) receptor (Rattus norvegicus, UniProt P30994+P08909+P14842); test: Binding affinity towards 5-hydroxytryptamine 2 receptor using [3H]- ketanserin as radioligand; type: protein assay
[2] = target: T1, Serotonin 2 (5-HT2) receptor; test: Binding affinity towards 5-hydroxytryptamine 2 receptor using [3H]- 1-(4-bromo-2,5-dimethoxy-phenyl)-2-aminopropane (D) as radioligand; type: protein assay
[3] = target: 5-hydroxytryptamine receptor 1A (Rattus norvegicus, UniProt P19327); test: Binding affinity towards 5-hydroxytryptamine 1A receptor

The chains behind the UniProt entries cited, without tags or fusion partners. Where a name states a change or a piece, a line headed by the entry shows the natural chain unless it says otherwise.
UniProt P30994: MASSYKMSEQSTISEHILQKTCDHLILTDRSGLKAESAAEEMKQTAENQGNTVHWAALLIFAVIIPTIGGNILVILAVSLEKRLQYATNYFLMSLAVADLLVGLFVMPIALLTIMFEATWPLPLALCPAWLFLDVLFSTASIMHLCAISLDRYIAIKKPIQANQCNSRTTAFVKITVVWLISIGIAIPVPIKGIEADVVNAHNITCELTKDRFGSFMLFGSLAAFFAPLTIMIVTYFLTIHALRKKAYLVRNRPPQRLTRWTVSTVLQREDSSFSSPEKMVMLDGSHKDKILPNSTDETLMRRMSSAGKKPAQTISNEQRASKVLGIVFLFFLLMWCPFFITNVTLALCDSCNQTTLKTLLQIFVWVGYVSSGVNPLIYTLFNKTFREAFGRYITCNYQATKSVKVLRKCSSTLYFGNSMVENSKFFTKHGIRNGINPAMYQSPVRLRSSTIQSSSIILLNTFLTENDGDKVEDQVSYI
UniProt P08909: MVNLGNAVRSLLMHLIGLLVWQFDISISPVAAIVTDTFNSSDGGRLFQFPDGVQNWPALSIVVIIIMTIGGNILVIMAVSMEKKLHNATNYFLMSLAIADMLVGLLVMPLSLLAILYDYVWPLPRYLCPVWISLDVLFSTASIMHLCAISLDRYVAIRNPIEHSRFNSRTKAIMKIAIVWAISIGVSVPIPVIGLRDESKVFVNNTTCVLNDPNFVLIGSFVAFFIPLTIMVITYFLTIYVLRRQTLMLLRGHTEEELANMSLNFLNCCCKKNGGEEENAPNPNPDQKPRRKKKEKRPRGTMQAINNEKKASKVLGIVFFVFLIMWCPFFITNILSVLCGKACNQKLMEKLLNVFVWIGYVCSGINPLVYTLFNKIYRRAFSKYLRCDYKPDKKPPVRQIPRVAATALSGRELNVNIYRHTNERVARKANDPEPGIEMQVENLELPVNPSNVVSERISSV
UniProt P14842: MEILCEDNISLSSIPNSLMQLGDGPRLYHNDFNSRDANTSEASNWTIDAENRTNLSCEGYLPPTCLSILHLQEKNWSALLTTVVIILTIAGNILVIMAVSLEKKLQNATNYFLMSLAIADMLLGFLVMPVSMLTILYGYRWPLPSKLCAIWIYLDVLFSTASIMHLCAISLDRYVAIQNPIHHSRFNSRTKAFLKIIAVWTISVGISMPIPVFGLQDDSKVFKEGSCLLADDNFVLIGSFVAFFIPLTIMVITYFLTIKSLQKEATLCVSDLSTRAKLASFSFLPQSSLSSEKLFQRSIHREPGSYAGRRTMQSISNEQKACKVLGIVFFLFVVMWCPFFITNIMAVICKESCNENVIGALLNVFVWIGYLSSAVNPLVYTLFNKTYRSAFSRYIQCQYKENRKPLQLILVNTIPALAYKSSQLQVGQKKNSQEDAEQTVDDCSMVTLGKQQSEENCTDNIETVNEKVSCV
UniProt P19327, whole entry: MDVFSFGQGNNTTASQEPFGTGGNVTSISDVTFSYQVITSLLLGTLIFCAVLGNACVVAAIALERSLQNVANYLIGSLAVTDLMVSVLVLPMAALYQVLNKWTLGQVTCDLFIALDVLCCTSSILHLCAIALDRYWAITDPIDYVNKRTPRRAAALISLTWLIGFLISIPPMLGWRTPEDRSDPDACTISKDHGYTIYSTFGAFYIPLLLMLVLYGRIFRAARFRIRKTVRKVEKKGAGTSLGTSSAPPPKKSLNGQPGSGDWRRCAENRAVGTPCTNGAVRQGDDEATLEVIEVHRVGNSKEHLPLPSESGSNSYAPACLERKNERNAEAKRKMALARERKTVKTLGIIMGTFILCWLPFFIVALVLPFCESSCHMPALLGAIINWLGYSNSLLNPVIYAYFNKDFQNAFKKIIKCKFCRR

Compound | Ki [1] [µM] | Ki [2] [µM] | Ki [3] [µM]
COc1ccc2[nH]cc(CCN)c2c1 [5-METHOXYTRYPTAMINE] | 0.305 | – | –
COc1ccc2[nH]cc(CCN(C)C)c2c1 [MEBUFOTENIN] | 0.62 | 0.015 | –
NCCc1c[nH]c2ccc(O)cc12 [SEROTONIN] | – | – | 0.0017

From ChEMBL document CHEMBL1124092 (J Med Chem, 1988)
